Results reported in PubChem BioAssay AID2557 (NMMLSC, 2010).
This is a selection; strong and weak results do not stand in their true shares. Calls of active or inactive are those of the source. Rule as the data show it: active = inhibition above about 50%; inactive = the rest.

Chains of the proteins cited; added tags and fusions are not shown.
UniProt P13612, whole entry, looked up: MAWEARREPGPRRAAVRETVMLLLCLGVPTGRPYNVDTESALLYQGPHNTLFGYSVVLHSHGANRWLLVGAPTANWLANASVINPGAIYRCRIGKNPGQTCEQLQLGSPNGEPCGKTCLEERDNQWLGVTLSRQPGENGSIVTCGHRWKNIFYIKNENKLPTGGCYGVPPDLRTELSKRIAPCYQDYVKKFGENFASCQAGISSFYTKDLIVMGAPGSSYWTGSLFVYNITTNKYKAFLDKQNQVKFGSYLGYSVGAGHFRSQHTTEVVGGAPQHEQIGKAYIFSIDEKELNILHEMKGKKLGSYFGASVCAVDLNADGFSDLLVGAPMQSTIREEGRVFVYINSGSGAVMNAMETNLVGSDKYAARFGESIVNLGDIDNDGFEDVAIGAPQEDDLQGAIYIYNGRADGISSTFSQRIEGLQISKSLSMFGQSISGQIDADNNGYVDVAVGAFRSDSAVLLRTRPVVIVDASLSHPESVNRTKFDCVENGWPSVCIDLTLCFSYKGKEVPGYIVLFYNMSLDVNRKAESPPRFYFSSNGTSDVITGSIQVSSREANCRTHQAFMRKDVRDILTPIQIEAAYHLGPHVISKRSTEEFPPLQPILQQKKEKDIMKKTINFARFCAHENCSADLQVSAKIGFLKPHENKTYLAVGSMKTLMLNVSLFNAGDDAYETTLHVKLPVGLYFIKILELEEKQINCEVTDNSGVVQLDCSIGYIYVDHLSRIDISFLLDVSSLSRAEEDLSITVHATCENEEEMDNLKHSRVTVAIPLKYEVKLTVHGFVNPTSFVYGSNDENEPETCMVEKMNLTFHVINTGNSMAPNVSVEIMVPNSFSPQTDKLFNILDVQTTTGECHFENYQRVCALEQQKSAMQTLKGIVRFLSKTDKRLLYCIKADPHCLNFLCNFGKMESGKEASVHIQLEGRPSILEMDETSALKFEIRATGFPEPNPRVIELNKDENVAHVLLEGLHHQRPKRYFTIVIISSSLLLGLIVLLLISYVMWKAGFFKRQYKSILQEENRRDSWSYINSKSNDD

These compounds were tested against Integrin alpha-4 (Homo sapiens) (UniProt P13612) (assay: inhibition in human VLA-4 binding assay, primary screen, VLA-4 allosteric modulator project, MLPCN library, flow cytometry, VLA-4 expressing cells (AID 2557)). Conditions: ligand binding flow cytometry, stronger effect = higher value, about 7 µM as worked out from the volumes in the protocol.

Question: For `CCC(=O)N(c1ccccc1)C1(COC)CCN(CCn2nnn(CC)c2=O)CC1`, which inhibition is on record?
Answer: inactive: 3.69%

Question: `CCC(=O)N(c1ccccc1)C1(COC)CCN(CCc2cccs2)CC1` was tested. Which inhibition did it give?
Answer: inactive: 16.7%
